Experimental data reported in patent US9278527B2, “Ink jet recording ink, ink jet recording method, ink jet recording head, and ink jet recording apparatus” (CANON FINETECH INC., priority 2013, dated 2016).

Assay: Hydrophilicity-hydrophobicity coefficient from water activity value of 20% aqueous solution (equation (A))
Format: physicochemical
Conditions: water activity by chilled mirror dew point method (AquaLab CX-3TE) at 25° C.

Hydrophilicity-hydrophobicity coefficient: 0.08
Structure (SMILES): OCC(O)COCC(O)CO (stereo not shown) [Diglycerin]
